Measurements: PubChem BioAssay AID1813 (Broad Institute, 2009)
Only a part is listed here, and it is no random draw. Some tests of the compounds listed are not included; inactive here does not mean inactive elsewhere. Calls of active or inactive are those of the source. Rule as the data show it: active = inhibition above about 60%; inconclusive = no clear call, values can overlap the other calls; inactive = below that.

Experiment: 5' untranslated region of α-synuclein, MLPCN primary screen (AID 1813);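 also: H4 neuroglioblastoma cells stably carrying SNCA 5'UTR luciferase fusion; 0% = DMSO wells and 100% = positive control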
Settings: alpha-synuclein 5'UTR reporter, inhibitor activity; stronger effect = higher value; tested at 7.5 µM
In the case of `COc1ccc(Cl)cc1C(=O)NCC1(N(C)C)CCCCC1`, the inhibition is reported as inactive: -10.1%.
With `COc1cccc(C(=O)NCC2(N3CCCCC3)CCCCC2)c1` the inhibition was inactive: -4.77%.
In the case of `O=C(NCC1(N2CCCCC2)CCCCC1)c1cccc(Cl)c1`, the inhibition is reported as inactive: -30.7%.
For `CN(C)C1(CNC(=O)c2ccc(Br)cc2)CCCCC1`, the inhibition was inactive: -7.79%.
For `COc1cc(C(=O)NCC2(N(C)C)CCCCC2)c([N+](=O)[O-])cc1OC`, the inhibition was inactive: 1.96%.
With `COc1ccc(Br)c(C(=O)NCC2(N3CCCCC3)CCCCC2)c1` the inhibition was inactive: 1.47%.
With `CC(C)Oc1ccc(C(=O)NCC2(N(C)C)CCCCC2)cc1` the inhibition was inactive: 0.971%.
With `CN(C)c1cccc(C(=O)NCC2(N(C)C)CCCCC2)c1` the inhibition was inactive: -27.4%.
With `O=C(OC1CN2CCC1CC2)C(CO)(c1ccccc1)c1ccccc1` (centres undefined) the inhibition was inactive: -25.4%.
In the case of `COc1cc(SC)ccc1C(=O)NCC1(N(C)C)CCCCC1`, the inhibition is reported as inactive: -1.62%.
In the case of `CCN(CC)CC(C)C(C)OC(=O)C(O)(c1ccccc1)c1ccccc1` (centres undefined), the inhibition is reported as inactive: 15.5%.
With `CC(C)N1C(=O)CC2(CCN(CCOC(=O)C(O)(c3ccccc3)c3ccccc3)CC2)C1=O` the inhibition was inactive: 8.55%.
With `Cc1ccc(C(=O)NCC2(N3CCCCC3)CCCCC2)cc1` the inhibition was inactive: -7.83%.
In the case of `O=C(NCC1(N2CCCCC2)CCCCC1)c1cc([N+](=O)[O-])ccc1Cl`, the inhibition is reported as inactive: -10.7%.
For `CN1[C@@H]2CC[C@H]1CC(OC(=O)C(O)(c1ccccc1)c1ccccc1)C2` (some centres undefined), the inhibition was inactive: 7.72%.
In the case of `O=C(NCC1(N2CCCCC2)CCCCC1)c1cc(F)c(F)cc1Cl`, the inhibition is reported as inactive: 11.8%.
For `C=CCN1CCN(CCOC(=O)C(O)(c2ccccc2)c2ccccc2)CC1`, the inhibition was inactive: -25.5%.
With `COc1ccc(C(=O)NCC2(N(C)C)CCCCC2)cc1` the inhibition was inactive: 1.51%.
For `O=C(NCC1(N2CCCCC2)CCCCC1)c1cccc(Br)c1`, the inhibition was inactive: -12.7%.
In the case of `Cc1cc(C(=O)NCC2(N3CCCCC3)CCCCC2)ccc1[N+](=O)[O-]`, the inhibition is reported as inactive: -27%.
For `CCN1CCCC(OC(=O)C2(O)c3ccccc3C=Cc3ccccc32)C1` (centres undefined), the inhibition was inactive: 5.69%.
For `CN(C)C1CCCC1OC(=O)C(O)(c1ccccc1)c1ccccc1` (centres undefined), the inhibition was inactive: 0.783%.
For `CN(C)c1ccc(C(=O)NCC2(N(C)C)CCCCC2)cc1`, the inhibition was inactive: 2.32%.
For `Cc1ccccc1C(=O)NCC1(N2CCCCC2)CCCCC1`, the inhibition was inactive: 3.21%.
